# Values of other authors as cited in patent US20080081827A1, “Use of a Pyrazole-Derived Compound that is an Antagonist for Cannabinoid CB1 Receptors, for Treating or Preventing Chronic Bronchitis or Chronic Obstructive Bronchopneumopathy” (SANOFI AVENTIS, priority 2004, published 2008).
# Amino acid sequences for entries named in this document (tags omitted).
# UniProt P47746, whole entry: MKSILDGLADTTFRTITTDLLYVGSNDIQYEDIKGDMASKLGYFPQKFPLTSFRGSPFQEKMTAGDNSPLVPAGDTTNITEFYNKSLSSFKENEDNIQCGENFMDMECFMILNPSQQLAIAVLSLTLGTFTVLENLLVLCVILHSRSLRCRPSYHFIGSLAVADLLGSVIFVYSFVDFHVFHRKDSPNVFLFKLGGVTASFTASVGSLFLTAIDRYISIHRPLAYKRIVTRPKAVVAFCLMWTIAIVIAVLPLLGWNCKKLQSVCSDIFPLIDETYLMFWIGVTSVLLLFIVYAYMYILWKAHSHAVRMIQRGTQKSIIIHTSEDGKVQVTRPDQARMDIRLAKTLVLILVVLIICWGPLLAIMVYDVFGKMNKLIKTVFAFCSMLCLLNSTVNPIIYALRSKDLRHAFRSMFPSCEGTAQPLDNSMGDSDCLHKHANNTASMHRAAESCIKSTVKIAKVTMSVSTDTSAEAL
# Molecular target: cannabinoid CB1 receptors (Mus musculus, UniProt P47746)
# Settings: mouse peritonitis model; cited from earlier work
smiles,measurement,value
"Cc1c(C(=O)NN2CCCCC2)nn(-c2ccc(Cl)cc2Cl)c1-c1ccc(Cl)cc1 [rimonabant, N-piperidino-5-(4-chlorophenyl)-1-(2,4-dichlorophenyl)-4-methylpyrazole-3-carboxamide]",effect on the anti-inflammatory effect of the cannabinoid agonists HU210 and WIN 55212-2 on neutrophil migration,inhibits the anti-inflammatory effect
